Measured values taken from paper PMC3549253, “Effect of repetitive lysine–tryptophan motifs on the bactericidal activity of antimicrobial peptides” (Amino Acids, 2012).
Read-outs that look alike come from different tables or passages of the source.

Assays:
human red blood cells = experiment: Human red blood cell (hRBC) hemolysis; format: cell-based
Description: Hemolytic activities of the peptides were assessed using heparinized hRBCs collected from healthy donors. Fresh hRBCs were washed three times by centrifugation at 800×g for 10 min in PBS (pH 7.2) and then resuspended in PBS. The peptides were then dissolved in PBS and added to 100 μl of stock hRBCs suspended in PBS (final RBC concentration, 4 % v/v), after which the samples were incubated with gentle agitation for 60 min at 37° C before centrifugation for 10 min at 800×g. Absorbance of the supernatants was recorded at 414 nm. In addition, control samples for zero hemolysis and 100 % hemolysis were incubated with PBS (A blank) or 0.1 % Triton X-100 (A triton), respectively. Melittin was used as a reference hemolytic peptide. Percent hemolysis was calculated according to the following equation: Each measurement was conducted in triplicate (Kim et al. [2011]).

[1] = system: Listeria monocytogenes (KCTC 3710); format: cell-based; conditions: 2 × 10^5 CFU/ml, 24 h at 37° C, average of 3–4 independent experiments
Text: (§1) Escherichia coli (KCTC 1682), Salmonella typhimurium (KCTC 1926), Pseudomonas aeruginosa (KCTC 1637), Staphylococcus aureus (KCTC 1621), Bacillus subtilis (KCTC 1918), and Listeria monocytogenes (KCTC 3710) were obtained from the Korean Collection for Type Cultures (KCTC). Drug-resistant E. coli strains (CCARM 1229 and CCARM 1238), S. typhimurium strains (CCARM 8007, CCARM 8009, and CCARM 8013), and S. aureus strains (CCARM 3089, CCARM 3090, CCARM 3108, CCARM 3114, and CCARM 3126) were from the Culture Collection of Antibiotic-Resistant Microbes (CCARM) at Seoul Women’s University, Korea.
(§2) The antibacterial activities of the peptides against Gram-negative, Gram-positive and antibiotic-resistant bacterial strains were evaluated using the microbroth dilution method (Park et al. [2003]). Aliquots of culture medium containing bacterial suspensions in mid-logarithmic phase at a concentration of 2 × 10^5 colony forming units (CFU)/ml were added to each well of a multiwell plate containing peptide solution serially diluted 2× in 10 mM sodium phosphate buffer (pH 7.2) or phosphate-buffered saline (PBS, 1.5 mM KH2PO4, 2.7 mM KCl, 8.1 mM Na2HPO4, 150 mM NaCl, pH 7.2). Growth inhibition was evaluated by measuring the absorbance at 620 nm using a Versa-Max microplate Elisa Reader (Molecular Devices Co., Sunnyvale, CA, USA) after 24 h of incubation at 37° C. […] All MIC measurements were the average of 3–4 independent experiments.

[2] = system: Staphylococcus aureus (KCTC 1621); format: cell-based; conditions: 2 × 10^5 CFU/ml, 24 h at 37° C, average of 3–4 independent experiments
Text: as §1, §2

[3] = system: Escherichia coli (KCTC 1682); format: cell-based; conditions: 2 × 10^5 CFU/ml, 24 h at 37° C, absorbance 620 nm, average of 3–4 independent experiments
Text: as §1, §2

[4] = system: Pseudomonas aeruginosa (KCTC 1637); format: cell-based; conditions: 2 × 10^5 CFU/ml, 24 h at 37° C, average of 3–4 independent experiments
Text: as §1, §2

[5] = system: Salmonella typhimurium (KCTC 1926); format: cell-based; conditions: 2 × 10^5 CFU/ml, 24 h at 37° C, average of 3–4 independent experiments
Text: as §1, §2

E. coli CCARM 1229 = format: cell-based, Escherichia coli; conditions: drug-resistant strain, 2 × 10^5 CFU/ml, 24 h at 37° C, average of 3–4 independent experiments
Text: as §1
The antibacterial activities of the peptides against Gram-negative, Gram-positive and antibiotic-resistant bacterial strains were evaluated using the microbroth dilution method (Park et al. [2003]). Aliquots of culture medium containing bacterial suspensions in mid-logarithmic phase at a concentration of 2 × 10^5 colony forming units (CFU)/ml were added to each well of a multiwell plate containing peptide solution serially diluted 2× in 10 mM sodium phosphate buffer (pH 7.2) or phosphate-buffered saline (PBS, 1.5 mM KH2PO4, 2.7 mM KCl, 8.1 mM Na2HPO4, 150 mM NaCl, pH 7.2). Growth inhibition was evaluated by measuring the absorbance at 620 nm using a Versa-Max microplate Elisa Reader (Molecular Devices Co., Sunnyvale, CA, USA) after 24 h of incubation at 37° C. […]

[6] = 10 mM sodium phosphate buffer, pH 7.2
[7] = PBS, pH 7.2 (number in parentheses)

Q: For `CC[C@H](C)[C@H](NC(=O)CN)C(=O)NCC(=O)N[C@@H](C)C(=O)N[C@H](C(=O)N[C@@H](CC(C)C)C(=O)N[C@@H](CCCCN)C(=O)N[C@H](C(=O)N[C@@H](CC(C)C)C(=O)N[C@H](C(=O)N[C@H](C(=O)NCC(=O)N[C@@H](CC(C)C)C(=O)N1CCC[C@H]1C(=O)N[C@@H](C)C(=O)N[C@@H](CC(C)C)C(=O)N[C@H](C(=O)N[C@@H](CO)C(=O)N[C@@H](Cc1c[nH]c2ccccc12)C(=O)N[C@H](C(=O)N[C@@H](CCCCN)C(=O)N[C@@H](CCCNC(=N)N)C(=O)N[C@@H](CCCCN)C(=O)N[C@@H](CCCNC(=N)N)C(=O)N[C@@H](CCC(N)=O)C(=O)N[C@@H](CCC(N)=O)C(N)=O)[C@@H](C)CC)[C@@H](C)CC)[C@@H](C)O)[C@@H](C)O)C(C)C)C(C)C` [Melittin, reference compound], which Hemolysis (human red blood cells; 200 μM peptide in PBS pH 7.2, 4 % v/v hRBCs, 60 min at 37° C, absorbance 414 nm, 100 % = 0.1 % Triton X-100, triplicate) is on record?
A: 100%

Q: What about the “MHC (minimal hemolytic concentration)” value (human red blood cells; minimal peptide concentration that produces 10 % hemolysis, hRBCs in PBS) of the same compound?
A: 0.5 µM

Q: And the MIC [1, 6]?
A: 1.56 (1.56) μM

Q: What about the MIC [1, 7] of the same compound?
A: 1.56 (1.56) μM

Q: What about the MIC [2, 6] of the same compound?
A: 1.56 (1.56) μM

Q: And the MIC [2, 7]?
A: 1.56 (1.56) μM

Q: And the MIC [3, 6]?
A: 1.56 (1.56) μM

Q: And the MIC [3, 7]?
A: 1.56 (1.56) μM

Q: What about the MIC [4, 6] of the same compound?
A: 3.12 (3.12) μM

Q: And the MIC [4, 7]?
A: 3.12 (3.12) μM

Q: And the MIC [5, 6]?
A: 0.39 (0.39) μM

Q: What about the MIC [5, 7] of the same compound?
A: 0.39 (0.39) μM

Q: What about the MIC (E. coli CCARM 1229; [6]) of the same compound?
A: 3.12 (3.12) μM

Q: And the MIC (E. coli CCARM 1229; [7])?
A: 3.12 (3.12) μM
